Biological target: T1, bovine spleen ADA (Bos taurus, UniProt P56658)
T1 sequence (P56658 1-363): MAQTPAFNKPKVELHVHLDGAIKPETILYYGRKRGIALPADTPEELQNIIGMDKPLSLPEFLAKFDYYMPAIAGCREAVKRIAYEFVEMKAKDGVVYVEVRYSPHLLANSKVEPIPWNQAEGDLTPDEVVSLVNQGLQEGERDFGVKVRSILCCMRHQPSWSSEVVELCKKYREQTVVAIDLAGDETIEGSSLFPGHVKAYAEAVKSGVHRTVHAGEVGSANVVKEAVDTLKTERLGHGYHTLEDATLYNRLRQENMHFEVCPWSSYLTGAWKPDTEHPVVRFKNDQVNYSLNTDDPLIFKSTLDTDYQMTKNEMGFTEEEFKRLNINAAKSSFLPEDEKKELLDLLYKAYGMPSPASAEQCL
Test: HTS plate-reader fluorescence assay of ADA
Format: biochemical
Settings: HTS assay format

erythro-9-(2-hydroxy-3-nonyl) adenine [EHNA]
IC50 (EHNA 10-point curve, 37 °C): 6 ± 2 nM | Ki (converted from IC50 by Cheng-Prusoff): 5 ± 2 nM

Source: publication PMC7815202 (ChemMedChem, 2020)
